Assay results: patent publication US11091488B2 (MISSION THERAPEUTICS LIMITED, priority 2015, dated 2021)

Amino acid sequences for entries named in this document (tags omitted). Residues count along the entry.
UniProt Q70CQ3, 57-517 limits assumed: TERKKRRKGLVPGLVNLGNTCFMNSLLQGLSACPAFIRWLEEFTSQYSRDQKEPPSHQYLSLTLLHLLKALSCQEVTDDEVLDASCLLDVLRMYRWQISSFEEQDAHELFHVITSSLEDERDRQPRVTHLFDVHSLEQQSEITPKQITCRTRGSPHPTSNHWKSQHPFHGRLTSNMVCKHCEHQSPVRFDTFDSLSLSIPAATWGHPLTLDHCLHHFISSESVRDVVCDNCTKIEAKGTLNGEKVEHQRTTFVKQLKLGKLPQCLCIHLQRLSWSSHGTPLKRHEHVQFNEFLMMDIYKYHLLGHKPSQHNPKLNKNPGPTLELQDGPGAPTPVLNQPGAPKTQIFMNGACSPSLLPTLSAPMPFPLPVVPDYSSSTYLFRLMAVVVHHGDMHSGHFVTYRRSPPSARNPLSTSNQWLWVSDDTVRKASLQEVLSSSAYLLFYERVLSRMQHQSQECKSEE

Target: USP30 (Homo sapiens (Human), UniProt Q70CQ3)
Assay: USP30 biochemical IC50 assay
Conditions: read-out: IC50 range; fluorescence polarisation, TAMRA labelled peptide linked to ubiquitin; 30 min pre-incubation, read after 2 hr

SMILES: Cn1c2ccccc2c2cc(N3CCN([C@@H]4CCN(C#N)C4)S3(=O)=O)ccc21
- IC50: < 100 nM
